{"sequences": {"note": "Protein sequences, listed by entry. Tags and fused reporters are not part of them. Lines headed by an entry give the natural chain unless they say otherwise; changes in a name come on top.", "UniProt Q99572": "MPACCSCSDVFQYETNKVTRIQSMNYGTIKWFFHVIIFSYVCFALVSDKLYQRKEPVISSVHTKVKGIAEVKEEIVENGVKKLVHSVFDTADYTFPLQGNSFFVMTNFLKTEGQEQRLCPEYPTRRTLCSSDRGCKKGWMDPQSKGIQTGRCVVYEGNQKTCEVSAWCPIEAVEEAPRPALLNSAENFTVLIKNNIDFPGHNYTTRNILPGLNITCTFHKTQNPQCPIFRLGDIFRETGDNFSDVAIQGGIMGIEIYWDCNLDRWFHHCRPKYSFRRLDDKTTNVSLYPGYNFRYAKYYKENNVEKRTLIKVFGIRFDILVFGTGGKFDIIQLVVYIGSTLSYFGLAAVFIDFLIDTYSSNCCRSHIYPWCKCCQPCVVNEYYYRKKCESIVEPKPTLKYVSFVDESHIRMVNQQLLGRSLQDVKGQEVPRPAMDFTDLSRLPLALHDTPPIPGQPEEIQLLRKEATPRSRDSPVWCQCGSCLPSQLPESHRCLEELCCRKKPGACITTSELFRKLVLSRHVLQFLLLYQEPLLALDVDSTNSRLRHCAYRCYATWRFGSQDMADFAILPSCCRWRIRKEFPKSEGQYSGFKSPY"}, "source": "ChEMBL document CHEMBL5360537", "about": "“From lead to clinic: A review of the structural design of P2X7R antagonists” (Eur J Med Chem, 2023)", "molecular_target": "P2X purinoceptor 7 (Homo sapiens, UniProt Q99572)", "experiment": "Antagonist activity at recombinant human P2X7 receptor expressed in 1321N1 cells measured after 30 mins by fluorescence based calcium flux assay", "type": "cell-based"}
{"compound": "C[C@@H]1c2nnn(-c3cnccn3)c2CCN1C(=O)c1cccc(C(F)(F)F)c1Cl", "values": [{"measurement": "IC50", "result": 13.4, "unit": "nM"}]}
